# AlphaSeq binding of Ab-95 light chain variants to a spike HR2 peptide

The measurements come from Engelhart et al. 2022 (doi:10.1038/s41597-022-01779-4) through the FLAb antibody collection.

Target: peptide PDVDLGDISGINAS, taken from heptad repeat 2 (HR2) of SARS-CoV-2 spike.

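The starting antibody came from a phage panning campaign against this peptide. The library (AAYL52) carries one to three amino acid substitutions per variant, with no insertions or deletions. AlphaSeq pools MATa yeast showing the antibodies with MATalpha yeast showing the peptide. Pairs that bind mate more often; barcode pairs of the diploids are counted by sequencing. Each replicate has its own calibration line, from reference interactions of the BCL2 family. Each pool was mated in three replicate cultures.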

Each scFv is VH, a (GGGGS)3 linker, VL, as in the parent Ab-95, and differs from it in the CDRs of the light chain only.
VH: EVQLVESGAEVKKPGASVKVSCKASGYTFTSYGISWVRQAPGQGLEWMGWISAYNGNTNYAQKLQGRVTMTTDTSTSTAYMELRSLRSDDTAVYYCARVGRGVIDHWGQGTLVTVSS
VL: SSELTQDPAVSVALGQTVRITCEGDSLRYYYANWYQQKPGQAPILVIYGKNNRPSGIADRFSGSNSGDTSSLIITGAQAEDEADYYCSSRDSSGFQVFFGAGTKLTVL

The whole VL of each variant is written out.
Every variant below is changed at L27 of the VL (sequential numbering).
Scale: log10 of Kd in nM, estimated from mating counts; low values are strong binders.
The mean shown is taken over the replicates in which the pair was detected.
Entries are sorted by rising average.
Three control strains display no target. For library AAYL52, 28% of the pairings with them gave a signal, with a median of 3.91 and one signal in twenty below 2.90, so weak values seen in few replicates may be background.
Parent in this assay: reference entry 2.31, copy in this library 2.25.

VL,mean log10 Kd (nM),replicates with signal
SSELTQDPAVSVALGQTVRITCEGDSARIYYANWYQQKPGQAPILVIYGKNNRPSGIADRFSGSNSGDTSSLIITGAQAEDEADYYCSSRDSSGFQVFFGAGTKLTVL,1.90,3/3
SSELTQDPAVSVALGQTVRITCEGDSIRYYFADWYQQKPGQAPILVIYGKNNRPSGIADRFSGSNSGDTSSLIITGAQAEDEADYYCSSRDSSGFQVFFGAGTKLTVL,2.17,3/3
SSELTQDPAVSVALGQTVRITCEIDSCRYYYANWYQQKPGQAPILVIYGKNNRPSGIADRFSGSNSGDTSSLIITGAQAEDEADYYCSSRDSSGFQVFFGAGTKLTVL,2.39,3/3
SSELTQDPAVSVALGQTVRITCFGDSHRYYYANWYQQKPGQAPILVIYGKNNRPVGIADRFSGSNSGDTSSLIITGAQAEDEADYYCSSRDSSGFQVFFGAGTKLTVL,2.70,3/3
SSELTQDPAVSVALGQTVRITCEGDSSRYYYANWYQQKPGQAPILVIYGKNNRPSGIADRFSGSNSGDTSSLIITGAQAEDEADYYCISRDSSGFQVFFGAGTKLTVL,3.45,3/3
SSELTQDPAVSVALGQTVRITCEIDSIRYYYANWYQQKPGQAPILVIYGKNNRPSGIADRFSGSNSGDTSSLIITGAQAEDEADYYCSSRDSSGGQVFFGAGTKLTVL,4.09,2/3
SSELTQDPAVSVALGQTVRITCEGDSERYYYAKWYQQKPGQAPILVIYGKNNRPSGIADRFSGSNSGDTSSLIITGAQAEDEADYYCWSRDSSGFQVFFGAGTKLTVL,4.42,1/3
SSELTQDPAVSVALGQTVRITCEGDSSRYYCANWYQQKPGQAPILVIYGKNNRPSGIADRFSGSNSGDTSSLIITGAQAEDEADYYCSSRCSSGFQVFFGAGTKLTVL,4.47,2/3
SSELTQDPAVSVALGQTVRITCEGDSWKYYYANWYQQKPGQAPILVIYGKNNRPSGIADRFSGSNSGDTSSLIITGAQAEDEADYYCSSRDSSGFQVDFGAGTKLTVL,4.60,3/3
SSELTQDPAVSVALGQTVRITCEGDSPRYYYANWYQQKPGQAPILVIYGKNNRPSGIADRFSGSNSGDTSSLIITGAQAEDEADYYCSSRDSSGFQQIFGAGTKLTVL,4.74,2/3
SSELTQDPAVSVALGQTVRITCEGDSPRYYYAWWYQQKPGQAPILVIYGKNNRPSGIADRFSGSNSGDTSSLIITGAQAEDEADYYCSSRDVSGFQVFFGAGTKLTVL,4.85,2/3
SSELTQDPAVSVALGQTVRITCEGDSCRYYYANWYQQKPGQAPILVIYGKNNTPSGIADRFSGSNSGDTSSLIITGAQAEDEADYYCSSRDSSGFQYFFGAGTKLTVL,4.93,1/3
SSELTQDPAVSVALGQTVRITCEGDSWRYYYANWYQQKPGQAPILVIYGQNNRPSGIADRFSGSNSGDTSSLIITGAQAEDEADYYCSSRDSSCFQVFFGAGTKLTVL,5.02,1/3
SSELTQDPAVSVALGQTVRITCIGDSWRYYYANWYQQKPGQAPILVIYGWNNRPSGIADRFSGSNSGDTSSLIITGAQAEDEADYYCSSRDSSGFQVFFGAGTKLTVL,5.32,1/3

Excerpt, the final 2 entries:

| VL | mean log10 Kd (nM) | replicates with signal |
|---|---|---|
| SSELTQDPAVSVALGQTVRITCEGDSWRYYYANWYQQKPGQAPILVIYGQNNRPSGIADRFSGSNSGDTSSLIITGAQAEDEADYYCSSRDSSCFQVFFGAGTKLTVL | 5.02 | 1/3 |
| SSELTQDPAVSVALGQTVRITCIGDSWRYYYANWYQQKPGQAPILVIYGWNNRPSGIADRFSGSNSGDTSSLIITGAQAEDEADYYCSSRDSSGFQVFFGAGTKLTVL | 5.32 | 1/3 |